Assay results taken from ChEMBL document CHEMBL4024707, “Using gene expression database to uncover biology functions of 1,4-disubstituted 1,2,3-triazole analogues synthesized via a copper (I)-catalyzed reaction” (Eur J Med Chem, 2017).

Columns and labels:
Format in all cases: functional
Hep 3B2 [1] = test: Cell cycle arrest in human Hep3B cells assessed as accumulation at G0/G1 phase at 5 uM after 24 hrs by propidium iodide staining based flow cytometry (reference value: 36.3 to 39.0%)
Hep 3B2 [2] = test: Cell cycle arrest in human Hep3B cells assessed as accumulation at G0/G1 phase at 2.5 uM after 24 hrs by propidium iodide staining based flow cytometry (reference value: 36.3 to 39.0%)
Hep 3B2 [3] = test: Cell cycle arrest in human Hep3B cells assessed as accumulation at sub-G1 phase at 20 uM after 24 hrs by propidium iodide staining based flow cytometry (reference value: 1.9 to 3.6%)
Hep 3B2 [4] = test: Cell cycle arrest in human Hep3B cells assessed as accumulation at G0/G1 phase at 5 uM after 48 hrs by propidium iodide staining based flow cytometry (reference value: 39.7 to 40.4%)

CNC(=O)c1cc(Oc2ccc(NC(=O)Nc3ccc(Cl)c(C(F)(F)F)c3)cc2)ccn1 [SORAFENIB] was tested, and the Activity (Hep 3B2 [1]) was 38.1%, the Activity (Hep 3B2 [2]) was 38.1% and the Activity (Hep 3B2 [3]) was 16.6%. It also gave an Activity (Hep 3B2 [4]) of 42.3%.
